We go through 1 substance from US20040062729A1, “Photoprotective sunscreen compositions comprising 1,3,5-triazine compounds and triesters of benenetricarboxylic acids” (SOCIETE L'OREAL S.A., priority 2001, published 2004).

For the series the following is noted: 5 g 2,4-bis{[4-2-ethylhexyl-oxy)]-2-hydroxy]phenyl}-6-(4-methoxyphenyl)-1,3,5-triazine in 20 g solvent oil, heated to 83° C., cooled.

“Oxypropylenated dimyristyl adipate (3 PO)”: the “Presence of crystals, storage in the cold (+4° C.) for 4 days” value (+4° C.) was “Crystals”. The “Presence of crystals, storage at room temperature for 4 days” value (room temperature) is on record as “Crystals”.
